# Data: patent US20240360179A1, “STAPLED PEPTIDES AND METHODS THEREOF” (FOG PHARMACEUTICALS, INC., priority 2021, published 2024)
# The chains behind the UniProt entries cited, without tags or fusion partners.
# UniProt P35222, whole entry: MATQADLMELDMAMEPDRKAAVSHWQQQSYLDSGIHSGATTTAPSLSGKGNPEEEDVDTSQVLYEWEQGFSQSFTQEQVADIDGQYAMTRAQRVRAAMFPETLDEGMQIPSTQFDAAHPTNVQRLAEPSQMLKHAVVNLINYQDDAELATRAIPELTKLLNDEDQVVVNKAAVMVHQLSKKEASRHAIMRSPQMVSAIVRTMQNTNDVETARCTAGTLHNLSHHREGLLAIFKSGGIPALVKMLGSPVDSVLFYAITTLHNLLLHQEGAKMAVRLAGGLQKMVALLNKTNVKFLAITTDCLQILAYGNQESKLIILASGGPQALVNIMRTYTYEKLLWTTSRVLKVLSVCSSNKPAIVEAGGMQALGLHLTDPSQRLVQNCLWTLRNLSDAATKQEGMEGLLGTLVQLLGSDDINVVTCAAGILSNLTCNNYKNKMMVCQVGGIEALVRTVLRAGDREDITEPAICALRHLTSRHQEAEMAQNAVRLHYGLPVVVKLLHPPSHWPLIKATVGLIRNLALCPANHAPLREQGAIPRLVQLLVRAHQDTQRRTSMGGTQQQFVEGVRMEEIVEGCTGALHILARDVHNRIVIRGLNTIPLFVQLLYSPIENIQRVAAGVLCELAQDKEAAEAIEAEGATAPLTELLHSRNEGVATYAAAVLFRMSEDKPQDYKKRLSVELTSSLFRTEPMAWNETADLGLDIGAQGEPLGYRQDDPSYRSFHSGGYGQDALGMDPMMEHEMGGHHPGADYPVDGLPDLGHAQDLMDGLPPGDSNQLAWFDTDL
# Molecular target: T1, full-length B-Catenin (Uniprot ID P35222) (Homo sapiens, UniProt P35222)
# T1 construct: 10 nM full-length B-Catenin (Uniprot ID P35222)
# Test: biochemical
# Type: binding
# Conditions: beta-Catenin FP IC50 (nM), competition fluorescence polarization
row,SMILES,IC50 [nM]
1,"CC(=O)N1CCC[C@]12CC=CCCCC1(CCCC=CCCCOC(=O)N3CC[C@@]4(C3)NC(=O)[C@H](CCCCNC(=O)CC[C@@H](C(=O)N[C@@H](C)C(N)=O)NC(=O)[C@H](Cc3csc5ccccc35)NC(=O)[C@H](Cc3ccsc3)NC4=O)NC(=O)[C@H](CCC(N)=O)NC(=O)[C@H](C)NC(=O)C(C)(C)NC(=O)[C@H](Cc3cccc(C(=O)O)c3)NC(=O)[C@H](CC(=O)O)NC1=O)NC(=O)[C@H](CC(C)(C)C)NC(=O)[C@H](CC(=O)O)NC2=O (relative stereo) [I-374, Ac-PL3-Asp-Npg-B5-Asp-3COOHF-Aib-Ala-Gln-Lys*3-PyrS2-3Thi-BztA-GlnR*3-Ala-NH2]",200 to 750
2,"CC(=O)N1CCC[C@]12CC=CCCCC1(CCCC=CCCCOC(=O)N3CC[C@@]4(C3)NC(=O)[C@H](CCCCNC(=O)CC[C@@H](C(=O)N[C@@H](C)C(N)=O)NC(=O)[C@H](Cc3csc5ccccc35)NC(=O)[C@H](Cc3ccsc3)NC4=O)NC(=O)[C@H](C3CC3)NC(=O)[C@H](C)NC(=O)C(C)(C)NC(=O)[C@H](Cc3cccc(C(=O)O)c3)NC(=O)[C@H](CC(=O)O)NC1=O)NC(=O)[C@H](CC(C)(C)C)NC(=O)[C@H](CC(=O)O)NC2=O (relative stereo) [I-395, Ac-PL3-Asp-Npg-B5-Asp-3COOHF-Aib-Ala-2Cpg-Lys*3-PyrS2-3Thi-BztA-GlnR*3-Ala-NH2]",> 1000
3,"CC(=O)N1CCC[C@]12CC=CCCCC1(CCCC=CCCCOC(=O)N3CC[C@@]4(C3)NC(=O)[C@H](CCCCNC(=O)CC[C@@H](C(=O)N[C@H](CC(C)C)C(=O)N[C@@H](CO)C(N)=O)NC(=O)[C@H](Cc3csc5ccccc35)NC(=O)[C@H](Cc3ccsc3)NC4=O)NC(=O)[C@H](Cc3ccccc3)NC(=O)[C@H](C)NC(=O)C(C)(C)NC(=O)[C@H](Cc3cccc(C(=O)O)c3)NC(=O)[C@H](CC(=O)O)NC1=O)NC(=O)[C@H](CC(C)(C)C)NC(=O)[C@H](CC(=O)O)NC2=O (relative stereo) [I-463, Ac-PL3-Asp-Npg-B5-Asp-3COOHF-Aib-Ala-Phe-Lys*3-PyrS2-3Thi-BztA-GlnR*3-dLeu-Ser-NH2]",< 50

# Continued, values first:
row,IC50 [nM],SMILES
1,< 50,"CC(=O)N1CCC[C@]12CC=CCCCC1(CCCC=CCCCOC(=O)N3CC[C@@]4(C3)NC(=O)[C@H](CCCCNC(=O)CC[C@@H](C(=O)N[C@@H](C)C(N)=O)NC(=O)[C@H](Cc3csc5ccccc35)NC(=O)[C@H](Cc3ccsc3)NC4=O)NC(=O)[C@H](Cc3ccccc3)NC(=O)[C@H](CC(=O)O)NC(=O)C(C)(C)NC(=O)[C@H](Cc3cccc(C(=O)O)c3)NC(=O)[C@H](CC(=O)O)NC1=O)NC(=O)[C@H](CC(C)(C)C)NC(=O)[C@H](CC(=O)O)NC2=O (relative stereo) [I-521, Ac-PL3-Asp-Npg-B5-Asp-3COOHF-Aib-Asp-Phe-Lys*3-PyrS2-3Thi-BztA-GlnR*3-Ala-NH2]"
2,200 to 750,"CC(=O)N1CCC[C@]12CC=CCCCC1(CCCC=CCCCOC(=O)N3CC[C@@]4(C3)NC(=O)[C@H](CCCCNC(=O)CC[C@@H](C(=O)N[C@@H](C)C(N)=O)NC(=O)[C@H](Cc3csc5ccccc35)NC(=O)[C@H](Cc3ccsc3)NC4=O)NC(=O)[C@H](Cc3ccccc3)NC(=O)[C@H](CC(=O)O)NC(=O)C(C)(C)NC(=O)[C@H](Cc3cccc(C(=O)O)c3)NC(=O)[C@H]([C@H](C)O)NC1=O)NC(=O)[C@H](CC(C)(C)C)NC(=O)[C@H](CC(=O)O)NC2=O (relative stereo) [I-522, Ac-PL3-Asp-Npg-B5-aThr-3COOHF-Aib-Asp-Phe-Lys*3-PyrS2-3Thi-BztA-GlnR*3-Ala-NH2]"
3,< 50,"CC(=O)N1CCC[C@]12CC=CCCCC1(CCCC=CCCCOC(=O)N3CC[C@@]4(C3)NC(=O)[C@H](CCCCNC(=O)CC[C@@H](C(=O)N[C@@H](C)C(N)=O)NC(=O)[C@H](Cc3csc5ccccc35)NC(=O)[C@H](Cc3ccsc3)NC4=O)NC(=O)[C@H](Cc3ccccc3)NC(=O)[C@H](CCC(=O)O)NC(=O)C(C)(C)NC(=O)[C@H](Cc3cccc(C(=O)O)c3)NC(=O)[C@H](CC(=O)O)NC1=O)NC(=O)[C@H](CC(C)(C)C)NC(=O)[C@H](CC(=O)O)NC2=O (relative stereo) [I-523, Ac-PL3-Asp-Npg-B5-Asp-3COOHF-Aib-Glu-Phe-Lys*3-PyrS2-3Thi-BztA-GlnR*3-Ala-NH2]"
